This passage reports activation results from PubChem BioAssay AID1671463 (Sanford-Burnham Center for Chemical Genomics, 2021).

Sequences of proteins named here, by UniProt entry; tags and fusion partners are left off.
UniProt P16066, whole entry: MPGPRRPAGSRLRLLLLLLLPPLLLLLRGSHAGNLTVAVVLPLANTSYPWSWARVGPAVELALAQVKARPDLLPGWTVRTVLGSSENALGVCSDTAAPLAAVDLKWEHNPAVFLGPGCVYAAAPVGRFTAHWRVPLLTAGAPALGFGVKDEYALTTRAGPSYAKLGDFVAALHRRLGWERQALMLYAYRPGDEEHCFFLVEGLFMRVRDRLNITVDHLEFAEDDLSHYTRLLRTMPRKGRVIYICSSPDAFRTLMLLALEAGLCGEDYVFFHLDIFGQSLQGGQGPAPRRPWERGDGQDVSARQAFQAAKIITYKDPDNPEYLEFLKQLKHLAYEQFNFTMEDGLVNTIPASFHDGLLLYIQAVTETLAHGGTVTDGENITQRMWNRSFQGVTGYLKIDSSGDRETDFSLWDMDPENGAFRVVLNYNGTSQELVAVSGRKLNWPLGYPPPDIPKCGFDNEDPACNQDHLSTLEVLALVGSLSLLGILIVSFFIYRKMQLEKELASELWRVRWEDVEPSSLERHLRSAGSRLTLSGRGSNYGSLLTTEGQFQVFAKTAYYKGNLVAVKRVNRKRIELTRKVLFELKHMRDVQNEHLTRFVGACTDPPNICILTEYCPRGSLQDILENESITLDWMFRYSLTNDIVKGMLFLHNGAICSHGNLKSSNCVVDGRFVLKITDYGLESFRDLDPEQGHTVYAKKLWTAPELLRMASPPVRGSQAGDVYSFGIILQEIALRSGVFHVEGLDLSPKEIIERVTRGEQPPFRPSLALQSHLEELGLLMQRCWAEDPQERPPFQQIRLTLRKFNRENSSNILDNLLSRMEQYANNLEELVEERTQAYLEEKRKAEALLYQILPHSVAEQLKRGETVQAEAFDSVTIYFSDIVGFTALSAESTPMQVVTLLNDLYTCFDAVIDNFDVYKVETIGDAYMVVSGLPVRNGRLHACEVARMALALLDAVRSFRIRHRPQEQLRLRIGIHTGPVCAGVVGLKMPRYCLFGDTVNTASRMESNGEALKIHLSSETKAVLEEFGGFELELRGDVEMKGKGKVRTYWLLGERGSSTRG

Structures are written as SMILES. Only a part is listed here, and it is no random draw. Activity calls are given as the source filed them. No stated cut-off is given here; in the data, active means activation above about 40%; inactive means the rest.

This experiment deals with Atrial natriuretic peptide receptor 1 (Homo sapiens) (UniProt P16066). Description: GC-A stimulated cGMP production enhancers – HEK293 GC-A cells, cGMP TR-FRET, EC30 ANP, primary screen (AID 1671463). The conditions noted are these: at 10 µM, hits give high values, 0% at EC30 ANP, 100% saturating ANP.
With `CCN1CCC(Nc2cccc(F)c2)CC1`, the activation was inactive: -0.13%. As for `COc1ccc(C(c2nnnn2C2CCCCC2)N2CCC(n3c(=O)[nH]c4ccccc43)CC2)cc1` (stereo not given), the figure is inactive: -2.19%. As for `CC(C)(C)n1nnnc1C(c1ccnc2ccccc12)N1CCC(n2c(=O)[nH]c3ccccc32)CC1` (stereo not given), the figure is inactive: -7.15%; as for `Cc1ccccc1NC1(C#N)CCN(Cc2ccccc2)CC1`, inactive: 0.46%; as for `CN(C)c1ccc(C(=O)NCC2(N3CCCCC3)CCCCC2)cc1`, inactive: -6.1%. As for `Cn1c(=O)[nH]cc(N(CCCl)CCCl)c1=O`, the figure is inactive: 0.15%; as for `O=C(NCC1(N2CCCCC2)CCCCC1)c1ccco1`, inactive: 3.55%; as for `CCC(c1nnnn1C1CCCCC1)N1CCC(n2c(=O)[nH]c3ccccc32)CC1` (stereo not given), inactive: -13.9%. For the molecule `COc1cccc(C(c2nnnn2C2CCCCC2)N2CCC(n3c(=O)[nH]c4ccccc43)CC2)c1OC` (stereo not given), the activation is inactive: -5.56%. For the molecule `CC(=O)N(c1ccccc1)C1CCNCC1`, the activation is inactive: 1.74%. For the molecule `COc1cc(OC)cc(C(=O)NCC2(N3CCCCC3)CCCCC2)c1`, the activation was inactive: 1.38%. As for `O=c1[nH]c2ccccc2n1C1CCN(C(c2ccnc3ccccc23)c2nnnn2C2CCCCC2)CC1` (stereo not given), the activation is inactive: -3.21%. As for `Fc1ccccc1NC1CCN(Cc2ccccc2)CC1`, the figure is inactive: 0.62%; as for `Cc1ccc(C(=O)NCC2(N3CCCCC3)CCCCC2)o1`, inactive: 1.82%.

Regarding `Cc1ccc(NC2(C#N)CCN(Cc3ccccc3)CC2)cc1`, the activation was inactive: -2.23%. Take `COc1cccc(C(c2nnnn2C2CCCC2)N2CCC(n3c(=O)[nH]c4ccccc43)CC2)c1OC` (stereo not given): the activation was inactive: -4.78%. As to `COc1cc(OC)cc(C(=O)NCC2(N3CCOCC3)CCCCC2)c1`, the activation was inactive: -3.12%. Take `COc1cccc(C(=O)N(c2cc(C)cc(C)c2)C2CCN(C(=O)OC(C)(C)C)CC2)c1`: the activation is inactive: 3.1%. With `CCC(CO)(C(=O)OC1CN2CCC1CC2)c1ccccc1` (stereo not given), the activation is inactive: -7.9%.

With `CN1CCC(Nc2ccc(Cl)cc2)CC1`, the activation was inactive: -1.54%.

Take `CN1CCC(Nc2ccc(F)c(Cl)c2)CC1`: the activation was inactive: 5.6%.

As for `CCOc1ncccc1C(=O)NCC1(N2CCOCC2)CCCCC1`, the activation is inactive: -1.47%. For the molecule `O=C(O)C1(Nc2ccccc2)CCN(Cc2ccccc2)CC1`, the activation was inactive: -1.77%.

Take `NN(c1ccccc1)C1CCN(CCc2ccccc2)CC1`: the activation is inactive: 0.77%.

With `CC(C)(C)OC(=O)N1CCC(Nc2ccccc2)CC1`, the activation was inactive: -0.05%. With `O=c1[nH]c2ccccc2n1C1CCN(C(c2cc3ccccc3o2)c2nnnn2C2CCCC2)CC1` (stereo not given) the figure was inactive: 6.91%. On to `CCCOc1ccc(C(=O)NCC2(N(C)C)CCCCC2)cc1`, for which the activation was inactive: 0.49%. Consider `CCOC(=O)N1CCC(Nc2ccc(C)cc2)CC1`, for which the activation was inactive: 0.76%. `COc1cccc(C(c2nnnn2C(C)(C)C)N2CCC(n3c(=O)[nH]c4ccccc43)CC2)c1OC` (stereo not given): the activation was inactive: -2.05%. With `N/C(=N\O)c1c(N)no[n+]1[O-]` the figure was inactive: -0.94%; with `O=c1[nH]c2ccccc2n1C1CCN(C(c2cccs2)c2nnnn2C2CCCC2)CC1` (stereo not given), inactive: -2.09%.

In the case of `O=C(OC1CN2CCC1CC2)C1c2ccccc2C=Cc2ccccc21` (stereo not given), the activation was inactive: -32.5%. As for `CCCCn1nnnc1C(c1cccc(OC)c1OC)N1CCC(n2c(=O)[nH]c3ccccc32)CC1` (stereo not given), the activation was inactive: 0.38%. With `COc1cc(C(=O)NCC2(N3CCOCC3)CCCCC2)cc(OC)c1C`, the activation is inactive: -2.29%.

For the molecule `CCCCn1nnnc1C(c1ccccc1)N1CCC(n2c(=O)[nH]c3ccccc32)CC1` (stereo not given), the activation was inactive: 3.94%. As for `O=C(NCC1(N2CCOCC2)CCCCC1)c1cc(Br)ccc1Cl`, the activation is inactive: -5.59%. As for `NC(=O)C1(Nc2ccccc2)CCN(Cc2ccccc2)CC1`, the figure is inactive: -4.38%; as for `O=c1[nH]c2ccccc2n1C1CCN(C(c2cccs2)c2nnnn2C2CCCCC2)CC1` (stereo not given), inactive: -2.52%.

Turning to `O=c1[nH]c2ccccc2n1C1CCN(C(c2ccnc3ccccc23)c2nnnn2C2CCCC2)CC1` (stereo not given), the activation is inactive: -6.24%. As for `COc1ccc(C(=O)NCC2(N3CCOCC3)CCCCC2)cc1OC`, the figure is inactive: 1.21%. On to `CN(C)C1(CNC(=O)c2cccc(C#N)c2)CCCCC1`, for which the activation is inactive: -4.21%. As for `Cc1cc(N(CCCl)CCCl)ccc1C=O`, the figure is inactive: 3.25%; as for `O=c1[nH]c2ccccc2n1C1CCN(C(c2ccccc2)c2nnnn2C2CCCC2)CC1` (stereo not given), inactive: -5.45%. Consider `CCCN1CCC(Nc2cc(OC)cc(OC)c2)CC1`, for which the activation was inactive: 2.78%. With `C/C(N)=N\P(=O)(Oc1ccccc1)Oc1ccccc1` the figure was inactive: -0.32%; with `c1ccc(CN2CCC(Nc3ccccc3)CC2)cc1`, inactive: -0.1%; with `CC(C)(C)n1nnnc1C(c1cccc2ccccc12)N1CCC(n2c(=O)[nH]c3ccccc32)CC1` (stereo not given), inactive: -3.37%. Take `N#Cc1ccc(C(=O)NCC2(N3CCCCC3)CCCCC2)cc1`: the activation is inactive: 0.03%. Take `CC(C)(C)OC(=O)N1CCC(N(C(=O)c2ccccc2)c2ccc(Cl)cc2)CC1`: the activation was inactive: -6.3%. Take `O=C(NCC1(N2CCCCC2)CCCCC1)c1cccc(C(F)(F)F)c1`: the activation was inactive: 6.13%. As to `COc1cc(C(=O)NCC2(N3CCCCC3)CCCCC2)ccc1OC(F)F`, the activation was inactive: 1.22%. As for `O=C(NCC1(N2CCOCC2)CCCCC1)c1cc(=O)[nH]c2ccccc12`, the figure is inactive: 0.46%; as for `CN1CCN(CCOC(=O)C(O)(c2ccccc2)c2ccccc2)CC1`, inactive: -0.61%; as for `CC(C)c1ccc(C(=O)NCC2(N3CCOCC3)CCCCC2)cc1`, inactive: 0.54%.

Take `COc1ccc(NC2CCN(C(=O)OC(C)(C)C)CC2)cc1`: the activation is inactive: 3.69%. Take `CCCCn1nnnc1C(c1cccc2ccccc12)N1CCC(n2c(=O)[nH]c3ccccc32)CC1` (stereo not given): the activation was inactive: -4.62%.

For the molecule `O=C(NCC1(N2CCCCC2)CCCCC1)c1ccc(OC(F)F)cc1`, the activation is inactive: 1.46%. Regarding `CC(C)(C)n1nnnc1C(c1ccccc1OC(F)(F)F)N1CCC(n2c(=O)[nH]c3ccccc32)CC1` (stereo not given), the activation is inactive: -0.78%. With `O=c1[nH]c2ccccc2n1C1CCN(C(c2ccccc2OC(F)(F)F)c2nnnn2C2CCCC2)CC1` (stereo not given), the activation was inactive: -5.15%. Take `N#CC1(Nc2ccccc2)CCN(CCc2ccccc2)CC1`: the activation is inactive: 1.34%. `CCN1CCC(Nc2ccc(Cl)cc2)CC1`: the activation is inactive: 2.2%. `CSc1ccc(C(=O)NCC2(N3CCOCC3)CCCCC2)cc1`: the activation is inactive: -2.24%.

On to `O=C(NCC1(N2CCCCC2)CCCCC1)c1cccc([N+](=O)[O-])c1`, for which the activation was inactive: 1.04%. `CN1CCC(Nc2cccc(F)c2)CC1`: the activation is inactive: -0.59%. With `O=C(NCC1(N2CCCCC2)CCCCC1)c1cncc(Br)c1`, the activation is inactive: 2.55%.

Regarding `COc1ccc(C(c2nnnn2C2CCCC2)N2CCC(n3c(=O)[nH]c4ccccc43)CC2)cc1` (stereo not given), the activation is inactive: -6.31%. Regarding `CCCOc1ccc(C(=O)NCC2(N(C)C)CCCCC2)cc1OC`, the activation was inactive: -2.02%.

Turning to `Cc1ccc(C(=O)NCC2(N(C)C)CCCCC2)o1`, the activation was inactive: 2.73%.

In the case of `CC(C)c1ccc(NC2CCN(C(=O)OC(C)(C)C)CC2)cc1`, the activation was inactive: 6.43%. `CN(C)c1cccc(C(=O)NCC2(N3CCCCC3)CCCCC2)c1`: the activation is inactive: -3.02%. Take `COc1ccc(CN(CCCl)CCCl)cc1Cl`: the activation was inactive: -3.25%. Turning to `COC(=O)C1(Nc2ccccc2)CCN(Cc2ccccc2)CC1`, the activation was inactive: 2.7%. `O=C(NCC1(N2CCOCC2)CCCCC1)c1cc(F)c(F)cc1Cl`: the activation was inactive: 2.01%. As to `CCC(c1nnnn1C(C)(C)C)N1CCC(n2c(=O)[nH]c3ccccc32)CC1` (stereo not given), the activation was inactive: -2.81%. With `COc1cc(OC)c(C(=O)NCC2(N(C)C)CCCCC2)cc1OC` the figure was inactive: 4.23%; with `CCCCn1nnnc1C(c1ccnc2ccccc12)N1CCC(n2c(=O)[nH]c3ccccc32)CC1` (stereo not given), inactive: -4.25%. As to `Cc1cc(C)cc(N(C(=O)c2ccccc2)C2CCN(C(=O)OC(C)(C)C)CC2)c1`, the activation is inactive: -3.61%.

With `O=C(NCC1(N2CCCCC2)CCCCC1)c1ccc(Cl)nc1`, the activation was inactive: 0.36%.

`O=c1[nH]c2ccccc2n1C1CCN(C(c2ccccc2OC(F)(F)F)c2nnnn2C2CCCCC2)CC1` (stereo not given): the activation was inactive: -4.02%. For `O=C(NCC1(N2CCOCC2)CCCCC1)c1cc2ccccc2o1`, the activation is inactive: -0.95%. As for `COc1ccc(Cl)cc1C(=O)NCC1(N2CCOCC2)CCCCC1`, the figure is inactive: -0.23%.

As to `N#CC1(Nc2ccccc2)CCN(Cc2ccccc2)CC1`, the activation was inactive: -0.15%. With `O=C(NCC1(N2CCCCC2)CCCCC1)c1ccc(Cl)s1` the figure was inactive: -1.09%; with `O=C(OC1CN2CCC1CC2)C1c2ccccc2Oc2ccccc21` (stereo not given), inactive: -9.98%. As for `O=c1[nH]c2ccccc2n1C1CCN(C(c2cc3ccccc3o2)c2nnnn2C2CCCCC2)CC1` (stereo not given), the figure is inactive: 0.48%. On to `CCCCn1nnnc1C(c1ccc(OC)cc1)N1CCC(n2c(=O)[nH]c3ccccc32)CC1` (stereo not given), for which the activation is inactive: -3.36%.

With `CCOC(=O)N1CCC(Nc2ccc(OC)cc2)CC1`, the activation was inactive: -1.93%. Turning to `CC(C)(C)OC(=O)N1CCC(N(C(=O)c2ccccc2)c2ccc(F)cc2)CC1`, the activation was inactive: 1.22%. Turning to `COc1ccc(C(=O)NCC2(N3CCCCC3)CCCCC2)c(OC)c1OC`, the activation was inactive: 4.26%.

Regarding `CCC(c1nnnn1C1CCCC1)N1CCC(n2c(=O)[nH]c3ccccc32)CC1` (stereo not given), the activation was inactive: -1.63%. For the molecule `COc1ccc(C(=O)NCC2(N3CCCCC3)CCCCC2)cc1`, the activation was inactive: -0.79%. In the case of `O=C(NCC1(N2CCCCC2)CCCCC1)c1cccs1`, the activation was inactive: -3.2%. With `CCCCn1nnnc1C(CC)N1CCC(n2c(=O)[nH]c3ccccc32)CC1` (stereo not given), the activation was inactive: -2.12%. In the case of `CCCCn1nnnc1C(c1cccs1)N1CCC(n2c(=O)[nH]c3ccccc32)CC1` (stereo not given), the activation was inactive: -7.02%. Regarding `O=C(NCC1(N2CCCCC2)CCCCC1)c1ccc(=O)[nH]c1`, the activation is inactive: 2.65%.

Take `Cc1cccc(NC2(C#N)CCN(Cc3ccccc3)CC2)c1`: the activation is inactive: -6.16%. As for `CSc1ccccc1C(=O)NCC1(N2CCCCC2)CCCCC1`, the figure is inactive: -0.12%; as for `O=c1[nH]c2ccccc2n1C1CCN(C(c2ccccc2)c2nnnn2C2CCCCC2)CC1` (stereo not given), inactive: -8.21%. Consider `CCOC(=O)N1CCC(Nc2cccc(C)c2)CC1`, for which the activation is inactive: -3.13%. With `COc1cc(C(=O)NCC2(N(C)C)CCCCC2)ccc1OC(F)F` the figure was inactive: 6.66%; with `O=c1[nH]c2ccccc2n1C1CCN(C(c2cccc3ccccc23)c2nnnn2C2CCCC2)CC1` (stereo not given), inactive: -7.38%; with `O=C1CCN(Cc2ccccc2)CC1`, inactive: 0.96%. On to `CC(C)(C)n1nnnc1C(c1ccccc1)N1CCC(n2c(=O)[nH]c3ccccc32)CC1` (stereo not given), for which the activation was inactive: -1.82%.

`CCOc1ccc(C)cc1CN(CCCl)CCCl`: the activation was inactive: -0.26%. As for `COc1ccc(NC2CCN(CCc3ccccc3)CC2)c(OC)c1`, the activation is inactive: -1.39%.

In the case of `CCOC(=O)N1CCC(Nc2ccc(F)cc2)CC1`, the activation is inactive: -2.23%. On to `O=P1(N(CCCl)CCCl)SCCCS1`, for which the activation was inactive: -0.85%. For `CCCCn1nnnc1C(c1cc2ccccc2o1)N1CCC(n2c(=O)[nH]c3ccccc32)CC1` (stereo not given), the activation is inactive: 7.97%. As for `CCCCOc1ccc(C(=O)NCC2(N3CCOCC3)CCCCC2)cc1`, the activation was inactive: 5.28%. Consider `O=C(NCC1(N2CCCCC2)CCCCC1)c1ccc(F)cc1`, for which the activation is inactive: 2.79%.
